From patent US4401430A, “Method of and apparatus for detoxifying mammalian hosts” (priority 1981, dated 1983)

Key:
human albumin [1] = assay: Free chlorpromazine in human albumin solution with ethanol (differential solution pH change); type: in vitro ADME; conditions: ethanol 0 to 1.0% v/v; room temperature
human albumin [2] = assay: Free pentobarbital in human albumin solution with ethanol (differential solution pH change); type: in vitro ADME; conditions: ethanol 0 to 1.0% v/v, room temperature

Row | Compound | differential solution pH change (human albumin [1]) | ethanol concentration of maximum differential pH change (maximum free soluble drug concentration) (human albumin [2])
1 | CN(C)CCCN1c2ccccc2Sc2ccc(Cl)cc21 [Chlorpromazine HCl] | continuous pH changes | 
2 | CCCC(C)C1(CC)C(=O)NC(=O)NC1=O (centres unmarked) [Pentobarbital] |  | 0.6 % v/v

Where a name gives a salt, the structure may show the parent alone.
